The results in this text go back to PubChem BioAssay AID463082 (The Scripps Research Institute Molecular Screening Center, 2010).

Amino acid sequences for entries named in this document (tags omitted). A change or cut given only in a name is not applied to a line headed by its entry.
UniProt Q13093: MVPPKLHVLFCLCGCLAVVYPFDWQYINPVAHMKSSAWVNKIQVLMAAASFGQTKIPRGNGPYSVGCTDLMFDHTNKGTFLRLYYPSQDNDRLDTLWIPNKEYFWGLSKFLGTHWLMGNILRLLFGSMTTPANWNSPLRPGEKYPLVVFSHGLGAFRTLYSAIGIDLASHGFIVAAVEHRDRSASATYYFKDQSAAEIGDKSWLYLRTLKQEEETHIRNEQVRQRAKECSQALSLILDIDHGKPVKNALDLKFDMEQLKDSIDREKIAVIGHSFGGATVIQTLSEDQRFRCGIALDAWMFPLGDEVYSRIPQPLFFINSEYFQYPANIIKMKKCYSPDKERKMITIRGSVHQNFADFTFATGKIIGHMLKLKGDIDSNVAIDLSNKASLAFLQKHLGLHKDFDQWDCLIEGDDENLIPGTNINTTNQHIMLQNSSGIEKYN

This is a selection; strong and weak results do not stand in their true shares. Activity calls are given as the source filed them.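 Rule for the calls: active = inhibition above the mean inhibition across the screen plus 3 SD (cut at about 25% in these data); inactive = the rest.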

In the assay the target is Platelet-activating factor acetylhydrolase (Homo sapiens) (UniProt Q13093). Nature of the assay: inhibition of plasma PAF acetylhydrolase – biochemical, fluorescence polarization, human, primary screen (AID 463082).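 Note: inhibitors block binding of the rhodamine activity-based probe so polarization drops; 0% = enzyme with DMSO and 100% = wells lacking pPAFAH.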 The following applies: recombinant pPAFAH, FP-rhodamine probe fluorescence polarization; at 3.39 µM; active compounds read high. Background: Polarisation of emitted light reports the rotation of a fluorescent probe.
What is called inhibition is the relative decrease from the control value, in per cent. `CCN(N=Nc1nonc1N)c1nonc1N`: the inhibition was inactive: 0.43%. For the compound `O=[N+]([O-])c1cc([N+](=O)[O-])c(CCN2CCOCC2)c([N+](=O)[O-])c1`, the inhibition is active: 49.5%. For `CN(C(=O)Cc1ccc(Cl)c(Cl)c1)[C@H]1CCCC[C@@H]1N1CCCC1`, the inhibition is inactive: 16.6%. `Cc1ccc(NP(=O)(Oc2ccccc2F)Oc2ccccc2F)nc1`: the inhibition was inactive: 2.13%. In the case of `Cc1cc(SC(NC(=O)c2ccc(F)cc2)C(Cl)(Cl)Cl)ncn1` (centres undefined), the inhibition was inactive: -1.07%.

As to `CCOP(=O)(Nc1ccccc1)OCC`, the inhibition was inactive: 2.33%. Under `O=P(Nc1nc2ccc(Cl)cc2s1)(c1ccccc1)c1ccccc1` stands inactive: 4.6%. In the case of `CC(=O)Nc1ccc([As](=O)(O)O)cc1`, the inhibition is inactive: 4.95%. Turning to `O=C(O)c1ccccc1[As](=O)(O)O`, the inhibition was inactive: 1.13%. For `O=C(NC(Sc1ccncn1)C(Cl)(Cl)Cl)c1ccccc1` (centres undefined) the value was inactive: 15.6%; for `Cc1c2non([O-])c-2c(C)[n+](=O)[n+]1[O-]`, inactive: 3.88%. With `Oc1ccccc1CNc1ccccn1`, the inhibition is inactive: 1.4%. Regarding `Nc1cc(N)c2nonc2c1[N+](=O)[O-]`, the inhibition was inactive: 14.7%. Consider `CC(C)CC(=O)NC(Sc1ccc(Cl)cc1)C(Cl)(Cl)Cl` (centres undefined), for which the inhibition was inactive: 0.76%.

As for `CN1CCCC(OC(=O)C(c2ccccc2)c2ccccc2)C1` (centres undefined), the inhibition was inactive: -0.49%. For `Clc1ccc(Cl)c(NC2=NCC(CBr)S2)c1` (centres undefined) the value was inactive: 3.06%; for `Cc1ccc(OP(=O)(Nc2nccs2)Oc2ccc(C)cc2)cc1`, inactive: -3.2%. Regarding `COc1ccccc1OP(=O)(Nc1ccc(C)cn1)Oc1ccccc1OC`, the inhibition is inactive: 2.28%. Under `Cc1ccc(N/C(=N/P(=O)(N2CCOCC2)N2CCOCC2)N2CCOCC2)cc1` stands inactive: -2.04%; under `CN(C(=O)Cc1ccc(Cl)c(Cl)c1)[C@H]1CCCC[C@H]1N1CCCC1`, inactive: 3.04%. Under `NC(=O)c1cc([N+](=O)[O-])cc([N+](=O)[O-])c1N` stands inactive: -0.23%. On to `CC1CCN(C(=O)Oc2c(Cl)cc(Cl)c3cccnc23)CC1`, for which the inhibition was inactive: 1.58%. Under `CN(C)C(=O)OCCc1n(C)cc[n+]1C` stands inactive: 2.7%. On to `CC(C)=N/N=C(\N)N[N+](=O)[O-]`, for which the inhibition is inactive: -4.8%. Under `CCN(/C(=N/P(=O)(N1CCOCC1)N1CCOCC1)N1CCOCC1)c1ccc(OC)cc1` stands inactive: 7.49%; under `C[N+]1=C2C=CC=CC=C2SC12C([N+](=O)[O-])=CC([N+](=O)[O-])=C[C-]2[N+](=O)[O-]` (centres undefined), active: 40.2%. Turning to `Nc1ccc([As](=O)(O)c2ccc(N)cc2)cc1`, the inhibition is inactive: 5.91%. `O=[N+]([O-])c1cc([N+](=O)[O-])c(CCNc2ccccc2)c([N+](=O)[O-])c1`: the inhibition is active: 33.7%. As to `CCc1nc2c(n1)c1c(non1O)c1c2no[n+]1[O-]`, the inhibition was inactive: 6.32%. Turning to `Cc1ccc(NP(=O)(Oc2ccccc2)Oc2ccccc2)nc1`, the inhibition was inactive: -11.8%. Turning to `CC(=O)N1C2C3N(C(C)=O)C1C1N(C(C)=O)C(C(N1C(C)=O)N3C(C)=O)N2C(C)=O`, the inhibition was inactive: 4.06%. In the case of `O=[N+]([O-])c1cccc2n[nH]nc12`, the inhibition is inactive: 1.28%. Regarding `COc1ccc(C2=NCC(CBr)S2)cc1` (centres undefined), the inhibition is inactive: -0.76%. Under `O=[N+]([O-])c1cccc(NC2=NCC(CBr)S2)c1` (centres undefined) stands inactive: 2.49%; under `O=[N+]([O-])c1ncn(CCn2ncnc2[N+](=O)[O-])n1`, inactive: 1.27%; under `CC(C)(C)C(=O)NC(Sc1ccncn1)C(Cl)(Cl)Cl` (centres undefined), inactive: -0.22%. For `O=C(Nc1cc([As](=O)(O)O)ccc1O)c1ccccc1` the value was inactive: 1.15%; for `O=C(OC1CN2CCC1CC2)c1cccc(Cl)c1` (centres undefined), inactive: 5.21%. For `C(Cc1nn[nH]n1)Cc1nn[nH]n1` the value was inactive: -1.38%.

On to `Nc1ccc([As](=O)(O)c2ccc([N+](=O)[O-])cc2)cc1`, for which the inhibition is inactive: 1.55%.

Turning to `O=[As](O)(c1ccccc1)c1ccc(O)cc1`, the inhibition was inactive: 0.98%. For `O=[N+]([O-])c1ncn(CCn2cnc([N+](=O)[O-])n2)n1` the value was inactive: 2.82%; for `CC(=O)NC(SC(=S)N(C)C)C(Cl)(Cl)Cl` (centres undefined), inactive: -0.15%; for `O=[N+]([O-])c1ccc(O)c(/C=N/Nc2ccc([N+](=O)[O-])cc2[N+](=O)[O-])c1`, inactive: 4.36%. For the compound `C[C@H]1OP(=O)(Oc2ccccc2)[C@H](O)[C@H](O)[C@H]1N=[N+]=[N-]` (some centres undefined), the inhibition was inactive: -1.66%. For `O=P(Nc1nc2ccccc2s1)(c1ccccc1)c1ccccc1`, the inhibition is inactive: 4.33%. Under `CN(C)C1(CNC(=O)c2ccc(Cl)c(S(N)(=O)=O)c2)CCCCC1` stands inactive: 9.74%; under `O=P(Nc1ccccn1)(c1ccc(Br)cc1)c1ccc(Br)cc1`, inactive: 0.9%. For the compound `c1nnnn1CCn1cnnn1`, the inhibition is inactive: -4.86%. As for `O=P(Nc1nccs1)(c1ccccc1)c1ccccc1`, the inhibition was inactive: -2%. Regarding `CC(C)C(=O)NC(Sc1ccccc1)C(Cl)(Cl)Cl` (centres undefined), the inhibition is inactive: 2.74%.

Consider `CC(=O)Nc1ccc(Oc2c([N+](=O)[O-])cc([N+](=O)[O-])cc2[N+](=O)[O-])cc1`, for which the inhibition is inactive: 2.22%. With `CC(=O)Nc1ccc([As](=O)(O)O)c(O)c1`, the inhibition was inactive: -0.57%. Consider `C[C@H]1OP(=O)(Oc2ccccc2)C[C@@H]2O[C@@H]21` (some centres undefined), for which the inhibition is inactive: 9.36%. Take `C[C@@H]1C=CCP(=O)(Oc2ccccc2)O1` (some centres undefined): the inhibition was inactive: 2.78%.

On to `Cc1ccccc1CN(C)C(=O)COC(=O)C(O)(c1ccccc1)c1ccccc1`, for which the inhibition was inactive: 2.02%. Turning to `CC(=O)c1ccc(N2CC2c2ccncc2)cc1` (centres undefined), the inhibition was inactive: 4.91%. On to `CC(C)(C)C(=O)NC(Sc1ccccc1)C(Cl)(Cl)Cl` (centres undefined), for which the inhibition is inactive: 7.3%.

Regarding `CCOc1ccc(C2=NCC(CBr)S2)cc1` (centres undefined), the inhibition is inactive: -2.23%. As to `O=P1(Nc2nc3ccc(Cl)cc3s2)COc2ccccc2O1` (centres undefined), the inhibition was inactive: 1.58%. For `CN(C)C(=O)Oc1noc2ccccc12` the value was inactive: -1.53%. Turning to `CC(NC(=O)COC(=O)C(O)(c1ccccc1)c1ccccc1)c1ccccc1` (centres undefined), the inhibition was inactive: 0.41%. For `Cc1ccccc1OP(=O)(Nc1ccccn1)Oc1ccccc1C` the value was inactive: 7.09%; for `CCC(=O)N1C2C3N(C(=O)CC)C1C1N(C(=O)CC)C(C(N1C(=O)CC)N3C(=O)CC)N2C(=O)CC`, inactive: 3.34%.
